US12419870B2, “Compositions and methods for immune cell modulation in adoptive immunotherapies” (Fate Therapeutics, Inc., priority 2016, dated 2025)

Columns and labels:
[1] = test system: viable CD8+ population; test: In vitro T cell culture compound screen, flow cytometry for cells co-expressing CCR7 and CD62L in CD8+ cells; type: cell-based, human; settings: 10 μM, about 6 days
Text: (§1) In Vitro T Cell Culture. Fresh leukopaks (AllCells, Alameda, CA) were obtained from healthy donors, from which T cells were negatively selected using the EasySep Human T Cell Enrichment Kit (Stem Cell Technologies, Vancouver, Canada). The freshly isolated T cells were aliquoted and cryopreserved. On the day the screens were initiated, T cells were thawed and washed into X-Vivo 15 with 5% human AB serum, IL-2, pen/strep, and additional supplements. Cells were dispensed into flat-bottom 384-well plates at 5×10^5 cells/ml with anti-CD3/Anti-CD28 dynabeads (ThermoFisher, Waltham, MA) at a 3:1 bead-to-cell ratio. […]
(§2) Flow Cytometry. […] Data acquisition was performed on a BD Fortessa X-20 (BD Biosciences) and data were analyzed using Treestar software (FlowJo, Ashland, OR) and Spotfire (Tibco, Boston, MA).
(§3) These cells are characterized by expression of CCR7 and CD62L. Therefore, cells co-expressing both of these identifying markers were evaluated. Within the viable CD4+ population and viable CD8+ population, the percent of cells co-expressing CCR7 and CD62L was determined. […]
(§4) The number of events in each of these gates relative to the number of absolute counting beads in each sample was calculated, defining a relative measure of the absolute number of naïve, stem cell memory, or central memory T cells within the CD4+ and/or CD8+ populations. […]

[2] = test system: viable CD4+ population; test: In vitro T cell culture compound screen, flow cytometry for cells co-expressing CCR7 and CD62L in CD4+ cells; type: cell-based, human; settings: 10 μM, about 6 days
Text: as §1, §2, §3, §4

[3] = test system: Nalm-6-luc; test: In vivo tumor clearance by compound-treated CAR-T cells in tumor-bearing NSG mice
Description: CAR-T cells were generated from CD4+ and CD8+ T cells that were separately activated and expanded in vitro. The cells were transduced with the CAR-2 construct (FIG. 2) one day after activation and then replated into 24-well GREX plates with or without the compounds. Half the media was replaced every two days thereafter until harvest one week post-activation. One week after tumor injection, the NSG mice were treated with 0.2×10^6 CD4 and CD8 CAR-T cells mixed at a 1:1 ratio via retroorbital injection. The mice were imaged periodically to determine tumor burden.

In the case of Oc1cccc(-c2nc(N3CCOCC3)c3oc4ncccc4c3n2)c1 [PI-103], the “number or ratio of cells co-expressing CCR7 and CD62L” value [1] is reported as “increased”, the “number or ratio of cells co-expressing CCR7 and CD62L” value [2] is reported as “increased” and the “tumor clearance / tumor control by treated CAR-T cells” value ([3]; 0.2×10^6 CD4 and CD8 CAR-T cells 1:1, retroorbital, one week after tumor injection) is reported as “able to clear tumor from the majority of mice”. The “mice that survived primary tumor challenge until the start of the rechallenge study” value ([3]; 60 days after the primary tumor injection) was “survived”.
